Experimental data reported in patent US9278960B2, “Quinoline carboxamide and quinoline carbonitrile derivatives as mGluR2-negative allosteric modulators, compositions, and their use” (Merck Sharp & Dohme Corp., priority 2011, dated 2016).

Chains of the proteins cited; added tags and fusions are not shown. Residues count along the entry.
UniProt Q14416, 19-872: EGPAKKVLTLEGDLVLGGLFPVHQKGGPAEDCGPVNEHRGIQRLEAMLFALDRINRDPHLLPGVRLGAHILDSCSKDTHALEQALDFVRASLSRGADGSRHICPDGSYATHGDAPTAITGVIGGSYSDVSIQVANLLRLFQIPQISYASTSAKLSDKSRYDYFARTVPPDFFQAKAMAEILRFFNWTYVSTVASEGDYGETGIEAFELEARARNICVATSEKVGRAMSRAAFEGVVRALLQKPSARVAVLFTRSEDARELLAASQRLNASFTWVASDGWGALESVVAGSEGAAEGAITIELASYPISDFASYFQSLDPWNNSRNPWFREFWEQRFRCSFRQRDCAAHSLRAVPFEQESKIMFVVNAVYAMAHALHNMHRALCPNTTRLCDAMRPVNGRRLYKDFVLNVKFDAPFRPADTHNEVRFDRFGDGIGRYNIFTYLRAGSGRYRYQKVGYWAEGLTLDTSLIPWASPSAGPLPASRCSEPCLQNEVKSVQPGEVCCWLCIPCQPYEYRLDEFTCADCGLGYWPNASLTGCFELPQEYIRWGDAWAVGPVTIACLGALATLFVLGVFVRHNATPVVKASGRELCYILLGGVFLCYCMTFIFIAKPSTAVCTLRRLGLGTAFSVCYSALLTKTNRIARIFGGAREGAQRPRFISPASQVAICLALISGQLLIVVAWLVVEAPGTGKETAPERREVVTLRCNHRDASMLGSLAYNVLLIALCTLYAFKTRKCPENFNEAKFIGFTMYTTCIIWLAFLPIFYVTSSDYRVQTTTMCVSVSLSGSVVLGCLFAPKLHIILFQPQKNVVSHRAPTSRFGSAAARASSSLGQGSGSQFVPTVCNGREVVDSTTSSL

Each compound was assayed against human mGluR2 (Homo sapiens (Human), UniProt Q14416) (assay: FLIPR Ca2+ mobilization antagonist assay in CHO dhfr- cells expressing recombinant human mGluR2 and Gα16). Details: antagonist response after addition of 2,500 nM glutamate, Fluo-4 AM, FLIPR384.
Assay type: cell-based

Compound	IC50
COc1cc(Cc2ccc3c(-c4cnn(C)c4)cc(C(N)=O)nc3c2F)cc(C)n1 [Example 7-35, 8-fluoro-7-[(2-methoxy-6-methylpyridin-4-yl)methyl]-4-(1-methyl-1H-pyrazol-4-yl)quinoline-2-carboxamide]	0.014 µM
Cn1cc(-c2cc(C(N)=O)nc3c(F)c(CN4CCCC(C(F)(F)F)C4)ccc23)cn1 (stereo not drawn) [Example 7-36, 8-fluoro-4-(1-methyl-1H-pyrazol-4-yl)-7-{[3-(trifluoromethyl)piperidin-1-yl]methyl}quinoline-2-carboxamide]	0.013 µM
Cn1cc(-c2cc(C(N)=O)nc3c(F)c(Cc4ccc(C5CC5)nc4)ccc23)cn1 [Example 7-37, 7-[(6-cyclopropylpyridin-3-yl)methyl]-8-fluoro-4-(1-methyl-1H-pyrazol-4-yl)quinoline-2-carboxamide]	0.03 µM
COc1ccc(Cc2ccc3c(-c4cnn(C)c4)cc(C(N)=O)nc3c2F)cn1 [Example 7-38, 8-fluoro-7-[(6-methoxypyridin-3-yl)methyl]-4-(1-methyl-1H-pyrazol-4-yl)quinoline-2-carboxamide]	0.039 µM
COc1ccc(-c2cc(C(N)=O)nc3cc(CCc4ccc(C#N)nc4)ccc23)c(F)c1 [Example 8-7, 7-[2-(6-Cyanopyridin-3-yl)ethyl]-4-(2-fluoro-4-methoxyphenyl)quinoline-2-carboxamide]	0.013 µM
N#Cc1cc(-c2ccc(F)cc2)c2ccc(CCc3cncnc3)cc2n1 [Example 8-13, 4-(4-fluorophenyl)-7-(2-pyrimidin-5-ylethyl)quinoline-2-carbonitrile]	0.17 µM
NC(=O)c1cc(-c2ccc(F)cc2)c2ccc(C(O)Cc3cccnc3)cc2n1 (stereo not drawn) [Example 8-17, 4-(4-fluorophenyl)-7-(1-hydroxy-2-pyridin-3-ylethyl)quinoline-2-carboxamide]	0.005 µM
COc1ccc(-c2cc(C(N)=O)nc3cc(C(O)Cc4ccc(Cl)nc4)ccc23)cc1 (stereo not drawn) [Example 8-20, 7-[2-(6-chloropyridin-3-yl)-1-hydroxyethyl]-4-(4-methoxyphenyl) quinoline-2-carboxamide]	0.012 µM
Cc1ccc(CC(O)c2ccc3c(-c4ccc(F)cc4)cc(C(N)=O)nc3c2)cn1 (stereo not drawn) [Example 8-21, 4-(4-fluorophenyl)-7-[1-hydroxy-2-(6-methylpyridin-3-yl)ethyl]quinoline-2-carboxamide]	0.019 µM
Cc1ccc(CC(O)c2ccc3c(-c4ccc(F)cc4)cc(C(N)=O)nc3c2)cn1 (stereo not drawn) [Example 8-22, 4-(4-fluorophenyl)-7-[1-hydroxy-2-(6-methylpyridin-3-yl)ethyl]quinoline-2-carboxamide]	0.014 µM
CC(Cc1cccnc1)c1ccc2c(-c3ccc(F)cc3)cc(C(N)=O)nc2c1 (stereo not drawn) [Example 8-23, 4-(4-fluorophenyl)-7-(1-methyl-2-pyridin-3-ylethyl)quinoline-2-carboxamide]	0.021 µM
CC(Cc1cccnc1)c1ccc2c(-c3ccc(F)cc3)cc(C(N)=O)nc2c1 (stereo not drawn) [Example 8-24, 4-(4-fluorophenyl)-7-(1-methyl-2-pyridin-3-ylethyl)quinoline-2-carboxamide]	0.02 µM
Cc1ccc(CC(C)c2ccc3c(-c4ccc(F)cc4)cc(C(N)=O)nc3c2)cn1 (stereo not drawn) [Example 8-25, 4-(4-fluorophenyl)-7-[1-methyl-2-(6-methylpyridin-3-yl)ethyl]quinoline-2-carboxamide]	0.021 µM
Cc1ccc(CC(C)c2ccc3c(-c4ccc(F)cc4)cc(C(N)=O)nc3c2)cn1 (stereo not drawn) [Example 8-26, 4-(4-fluorophenyl)-7-[1-methyl-2-(6-methylpyridin-3-yl)ethyl]quinoline-2-carboxamide]	0.019 µM
COc1ccc(-c2cc(C(N)=O)nc3cc(C(O)Cc4ccc(Cl)nc4)ccc23)cc1 (stereo not drawn) [Example 8-27, 7-[2-(6-chloropyridin-3-yl)-1-hydroxyethyl]-4-(4-methoxyphenyl) quinoline-2-carboxamide]	0.011 µM
COc1ccc(-c2cc(C(N)=O)nc3cc(C(O)Cc4ccc(Cl)nc4)ccc23)cc1 (stereo not drawn) [Example 8-28, 7-[2-(6-chloropyridin-3-yl)-1-hydroxyethyl]-4-(4-methoxyphenyl) quinoline-2-carboxamide]	0.006 µM
COc1ccc(-c2cc(C(N)=O)nc3cc(CCc4cccnc4N)ccc23)cc1 [Example 8-30, 7-[2-(2-aminopyridin-3-yl)ethyl]-4-(4-methoxyphenyl) quinoline-2-carboxamide]	0.009 µM
COc1ccc(-c2cc(C(N)=O)nc3cc(CCc4cccnc4N)ccc23)c(F)c1 [Example 8-31, 7-[2-(2-aminopyridin-3-yl)ethyl]-4-(2-fluoro-4-methoxyphenyl) quinoline-2-carboxamide]	0.009 µM
COc1ccc(-c2cc(C(N)=O)nc3cc(CCc4cnc(C#N)nc4)ccc23)cc1 [Example 8-32, 7-[2-(2-cyanopyrimidin-5-yl)ethyl]-4-(4-methoxyphenyl) quinoline-2-carboxamide]	0.007 µM
COc1ccc(-c2cc(C(N)=O)nc3cc(CCc4cnc(C#N)nc4)ccc23)c(F)c1 [Example 8-33, 7-[2-(2-cyanopyrimidin-5-yl)ethyl]-4-(2-fluoro-4-methoxyphenyl) quinoline-2-carboxamide]	0.006 µM

Compound	IC50
COc1ccc(-c2cc(C(N)=O)nc3cc(C(C)Cc4cnc(C#N)nc4)ccc23)cc1 (stereo not drawn) [Example 8-34, 7-[2-(2-cyanopyrimidin-5-yl)-1-methylethyl]-4-(4-methoxyphenyl) quinoline-2-carboxamide]	0.008 µM
COc1ccc(-c2cc(C(N)=O)nc3cc(CCc4cncnc4N)ccc23)cc1 [Example 8-35, 7-[2-(4-aminopyrimidin-5-yl)ethyl]-4-(4-methoxyphenyl) quinoline-2-carboxamide]	0.007 µM
COc1ccc(-c2cc(C(N)=O)nc3cc(C(C)Cc4cccnc4N)ccc23)cc1 (stereo not drawn) [Example 8-36, 7-[2-(2-aminopyridin-3-yl)-1-methylethyl]-4-(4-methoxyphenyl) quinoline-2-carboxamide]	0.015 µM
COc1ccc(-c2cc(C(N)=O)nc3cc(C(C)Cc4cccnc4N)ccc23)cc1 (stereo not drawn) [Example 8-37, 7-[2-(2-aminopyridin-3-yl)-1-methylethyl]-4-(4-methoxyphenyl) quinoline-2-carboxamide]	0.016 µM
COc1ccc(-c2cc(C(N)=O)nc3cc(C(C)Cc4cccnc4N)ccc23)c(F)c1 (stereo not drawn) [Example 8-38, 7-[2-(2-aminopyridin-3-yl)-1-methylethyl]-4-(2-fluoro-4-methoxyphenyl) quinoline-2-carboxamide]	0.033 µM
COc1ccc(-c2cc(C(N)=O)nc3cc(C(C)Cc4cccnc4N)ccc23)c(F)c1 (stereo not drawn) [Example 8-39, 7-[2-(2-aminopyridin-3-yl)-1-methylethyl]-4-(2-fluoro-4-methoxyphenyl) quinoline-2-carboxamide]	0.014 µM
COc1ccc(-c2cc(C(N)=O)nc3cc(C(C)Cc4cccnc4)ccc23)cc1 (stereo not drawn) [Example 8-40, 4-(4-methoxyphenyl)-7-(1-methyl-2-pyridin-3-ylethyl)quinoline-2-carboxamide]	0.01 µM
COc1ccc(-c2cc(C(N)=O)nc3cc(C(C)Cc4cccnc4)ccc23)cc1 (stereo not drawn) [Example 8-41, 4-(4-methoxyphenyl)-7-(1-methyl-2-pyridin-3-ylethyl)quinoline-2-carboxamide]	0.005 µM
COc1ccc(-c2cc(C(N)=O)nc3cc(C(C)Cc4ccc(C)nc4)ccc23)cc1 (stereo not drawn) [Example 8-42, 4-(4-methoxyphenyl)-7-[1-methyl-2-(6-methylpyridin-3-yl)ethyl]quinoline-2-carboxamide]	0.012 µM
COc1ccc(-c2cc(C(N)=O)nc3cc(C(C)Cc4ccc(C)nc4)ccc23)cc1 (stereo not drawn) [Example 8-43, 4-(4-methoxyphenyl)-7-[1-methyl-2-(6-methylpyridin-3-yl)ethyl]quinoline-2-carboxamide]	0.01 µM
COc1ccc(-c2cc(C(N)=O)nc3cc(C(C)Cc4cccnc4)ccc23)c(F)c1 (stereo not drawn) [Example 8-44, 4-(2-fluoro-4-methoxyphenyl)-7-(1-methyl-2-pyridin-3-ylethyl)quinoline-2-carboxamide]	0.008 µM
COc1ccc(-c2cc(C(N)=O)nc3cc(C(C)Cc4cccnc4)ccc23)c(F)c1 (stereo not drawn) [Example 8-45, 4-(2-fluoro-4-methoxyphenyl)-7-(1-methyl-2-pyridin-3-ylethyl)quinoline-2-carboxamide]	0.01 µM
COc1ccc(-c2cc(C(N)=O)nc3cc(C(C)Cc4ccc(CF)nc4)ccc23)cc1 (stereo not drawn) [Example 8-46, 7-{2-[6-(fluoromethyl)pyridin-3-yl]-1-methylethyl}-4-(4-methoxyphenyl) quinoline-2-carboxamide]	0.01 µM
COc1ccc(-c2cc(C(N)=O)nc3cc(C(C)Cc4ccc(CF)nc4)ccc23)cc1 (stereo not drawn) [Example 8-47, 7-{2-[6-(fluoromethyl)pyridin-3-yl]-1-methylethyl}-4-(4-methoxyphenyl) quinoline-2-carboxamide]	0.008 µM
COc1ccc(-c2cc(C(N)=O)nc3cc(C(C)Cc4ccc(CF)nc4)ccc23)c(F)c1 (stereo not drawn) [Example 8-48, 4-(2-fluoro-4-methoxyphenyl)-7-{2-[6-(fluoromethyl)pyridin-3-yl]-1-methylethyl} quinoline-2-carboxamide]	0.01 µM
COc1ccc(-c2cc(C(N)=O)nc3cc(C(C)Cc4ccc(CF)nc4)ccc23)c(F)c1 (stereo not drawn) [Example 8-49, 4-(2-fluoro-4-methoxyphenyl)-7-{2-[6-(fluoromethyl)pyridin-3-yl]-1-methylethyl} quinoline-2-carboxamide]	0.009 µM
COc1cc(F)c(-c2cc(C(N)=O)nc3cc(CCc4cnc(C)nc4)ccc23)c(F)c1 [Example 8-51, 4-(2,6-difluoro-4-methoxyphenyl)-7-[2-(2-methylpyrimidin-5-yl)ethyl]quinoline-2-carboxamide]	0.005 µM
COc1ccc(-c2cc(C(N)=O)nc3cc(CCc4cnc(C)nc4)ccc23)cc1C [Example 8-52, 4-(4-methoxy-3-methylphenyl)-7-[2-(2-methylpyrimidin-5-yl)ethyl]quinoline-2-carboxamide]	0.027 µM
COc1cc(C)c(-c2cc(C(N)=O)nc3cc(CCc4cnc(C)nc4)ccc23)c(C)c1 [Example 8-53, 4-(4-methoxy-2,6-dimethylphenyl)-7-[2-(2-methylpyrimidin-5-yl)ethyl]quinoline-2-carboxamide]	0.052 µM
